Among the data in patent publication US10201546B2, “Quinolinyl modulators of RORγt” (Janssen Pharmaceutica NV, priority 2013, dated 2019) are IC50 and Kd values, retold here.

Protein sequences, listed by entry. Tags and fused reporters are not part of them. Chains listed by the source or under a name are the forms on record and can include a tag or linker. Residues count along the entry.
UniProt P51449, other isoform, or with tags, fused parts or gaps: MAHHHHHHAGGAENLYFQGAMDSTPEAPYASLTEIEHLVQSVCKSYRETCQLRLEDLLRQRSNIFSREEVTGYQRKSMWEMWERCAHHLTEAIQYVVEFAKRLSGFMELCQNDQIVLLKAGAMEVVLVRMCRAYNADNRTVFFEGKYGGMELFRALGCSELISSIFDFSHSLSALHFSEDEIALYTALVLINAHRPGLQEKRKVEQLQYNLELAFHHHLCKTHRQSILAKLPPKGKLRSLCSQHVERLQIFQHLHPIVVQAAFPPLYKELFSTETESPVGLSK
UniProt P51449, 258-518: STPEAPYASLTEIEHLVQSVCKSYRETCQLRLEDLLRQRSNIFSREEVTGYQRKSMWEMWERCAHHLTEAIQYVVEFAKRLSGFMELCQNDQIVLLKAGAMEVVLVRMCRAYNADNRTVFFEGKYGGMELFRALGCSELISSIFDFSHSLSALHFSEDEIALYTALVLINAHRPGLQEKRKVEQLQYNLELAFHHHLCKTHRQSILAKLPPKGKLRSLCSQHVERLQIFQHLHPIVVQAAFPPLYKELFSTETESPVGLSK

Where two headings read alike, the source gives them in different places.

Assay [1] has as its system IL-17 production by CD4+ T cells under conditions which favor Th17 differentiation. The assay can be described thus: Human Th17 assay (IL-17 production by CD4 T cells). In kind it is cell-based.
In assay [2] the target is human RORγt ligand binding domain (RORγt LBD) (Homo sapiens (Human), UniProt P51449). The experiment in a line: RORγt ThermoFluor assay (thermal shift, binding affinity Kd). Background: DSF heats the sample and reads unfolding from a dye or from intrinsic fluorescence.
Assay [3] addresses human RORγt LBD fused to the DNA binding domain of the GAL4 protein (Homo sapiens (Human), UniProt P51449). The experiment in a line: RORγt (LBD) reporter assay in HEK293T cells. The class given is cell-based.
Setting [4] is: read-out: ThermoFluor Assay, Kd.
Setting [5] is: HEK293T cells, read-out: RORγt (LBD) Reporter Assay, IC50.

Usually IC50 stands for the midpoint of a concentration-inhibition curve. In the case of `COc1nc2ccc(C(O)(c3cnnn3C)C3CN(C(C)=O)C3)cc2c(Cl)c1CC(F)(F)F` (single isomer, unassigned) [Example 223c, 1-[3-[[4-Chloro-2-methoxy-3-(2,2,2-trifluoroethyl)-6-quinolyl]-hydroxy-(3-methyltriazol-4-yl)methyl]azetidin-1-yl]ethanone], the IC50 in assay [1] came out at 190 nM.
Same read-out and setting: as for `COc1nc2ccc(C(O)(c3ccc(C)nc3C)c3cnnn3C)cc2c(Cl)c1OC(C)C` (single isomer, unassigned) [Example 81c, [4-Chloro-2-methoxy-3-(1-methylethoxy)quinolin-6-yl](2,6-dimethylpyridin-3-yl)(1-methyl-1H-1,2,3-triazol-5-yl)methanol], the figure is 10 nM; as for `COc1nc2ccc(C(O)(c3sc(C)nc3C)c3cnnn3C)cc2c(Cl)c1OC(C)C` (single isomer, unassigned) [Example 85c, [4-Chloro-2-methoxy-3-(1-methylethoxy)quinolin-6-yl](2,4-dimethyl-1,3-thiazol-5-yl)(1-methyl-1H-1,2,3-triazol-5-yl)methanol], 1.6 nM.
Still for that read-out and setting: as for `COc1nc2ccc(C(O)(c3cnc(C)n3C)c3cnc(C)n3C)cc2c(Cl)c1CN1CC(C(F)(F)F)C1` [Example 118, (4-Chloro-2-methoxy-3-((3-(trifluoromethyl)azetidin-1-yl)methyl)quinolin-6-yl)bis(1,2-dimethyl-1H-imidazol-5-yl)methanol], the figure is 220 nM.
On the same count and under the same terms, the figure for `CCc1nc2ccc(C(O)(c3ccnc(C(F)(F)F)c3)c3cncn3C)cc2c(Cl)c1CC(F)(F)F` (single isomer, unassigned) [Example 227b, [4-Chloro-2-ethyl-3-(2,2,2-trifluoroethyl)-6-quinolyl]-(3-methylimidazol-4-yl)-[2-(trifluoromethyl)-4-pyridyl]methanol] is 52 nM.
As a reminder, the Kd is the equilibrium constant for the complex coming apart. As for `COc1nc2ccc(C(O)(c3ccc(C)nc3C)c3cnnn3C)cc2c(Cl)c1OC1CCOCC1` (single isomer, unassigned) [Example 69c, [4-Chloro-2-methoxy-3-(tetrahydro-2H-pyran-4-yloxy)quinolin-6-yl](2,6-dimethylpyridin-3-yl)(1-methyl-1H-1,2,3-triazol-5-yl)methanol], the equilibrium dissociation constant (Kd) in assay [2] (ThermoFluor Assay, Kd) turned out to be 14 nM. For the same compound, the IC50 in assay [3] stood at 190 nM.
With `COc1nc2ccc(C(O)(c3cnc(C)n3C)c3cnc(C)n3C)cc2c(Cl)c1CNC1CCCC(C(F)(F)F)C1` (centres unmarked) [Example 201, (4-Chloro-2-methoxy-3-(((3-(trifluoromethyl)cyclohexyl)amino)methyl)quinolin-6-yl)bis(1,2-dimethyl-1H-imidazol-5-yl)methanol], the IC50 in assay [1] was found to be 270 nM.
Consider `COc1nc2ccc(C(O)(c3ccc(C)nc3C)c3cnnn3C)cc2c(Cl)c1C1CCCC1` (single isomer, unassigned) [Example 136c, (4-Chloro-3-cyclopentyl-2-methoxyquinolin-6-yl)(2,6-dimethylpyridin-3-yl)(1-methyl-1H-1,2,3-triazol-5-yl)methanol], for which, in assay [2] (ThermoFluor ® Assay, Kd), the Kd came to 1.4 nM. Also, in assay [3], the IC50 came to 14 nM.
In the case of `COc1nc2ccc(C(O)(c3cncn3C)C3CCN(C(C)=O)CC3)cc2c(Cl)c1CC1CCOCC1` (centres unmarked) [Example 5a, 1-(4-((4-Chloro-2-methoxy-3-((tetrahydro-2H-pyran-4-yl)methyl)quinolin-6-yl)(hydroxy)(1-methyl-1H-imidazol-5-yl)methyl)piperidin-1-yl)ethanone], in assay [2] (setting [4]), the Kd worked out at 250 nM. Moreover, in assay [3] (setting [5]), the IC50 is greater than 6000 nM.
As to `COc1nc2ccc(C(O)(c3ccc(C)nc3C)c3cnnn3C)cc2c(Cl)c1OCC1CC1(F)F` (centres unmarked) [Example 72a, {4-Chloro-3-[(2,2-difluorocyclopropyl)methoxy]-2-methoxyquinolin-6-yl}(2,6-dimethylpyridin-3-yl)(1-methyl-1H-1,2,3-triazol-5-yl)methanol], in assay [2] (setting [4]), the Kd came to 41 nM. Further, the IC50 in assay [3] (setting [5]) turned out to be 57 nM.
In the case of `COc1nc2ccc(C(O)(c3ccc(C)nc3C)c3cnnn3C)cc2c(Cl)c1CC(C)C` (single isomer, unassigned) [Example 133b, (4-Chloro-3-isobutyl-2-methoxyquinolin-6-yl)(2,6-dimethylpyridin-3-yl)(1-methyl-1H-1,2,3-triazol-5-yl)methanol], in assay [2] (ThermoFluor ® Assay, Kd), the Kd came to 410 nM. In addition, the IC50 in assay [3] amounted to 840 nM.
Turning to `COc1nc2ccc(C(O)(c3ccc(C)nc3C)c3cnnn3C)cc2c(Cl)c1OCC1CC1(F)F` (single isomer, unassigned) [Example 72c, {4-Chloro-3-[(2,2-difluorocyclopropyl)methoxy]-2-methoxyquinolin-6-yl}(2,6-dimethylpyridin-3-yl)(1-methyl-1H-1,2,3-triazol-5-yl)methanol], the Kd in assay [2] (ThermoFluor Assay, Kd) was determined as 8.2 nM. In assay [3], this compound registered a 50% inhibitory concentration (IC50) of 33 nM.
In turn, `COc1nc2ccc(C(O)(c3ccccc3)C3CCN(C(C)=O)CC3)cc2c(Cl)c1CN1CCC(C(F)(F)F)CC1` (single isomer, unassigned) [Example 116b, 1-(4-((4-Chloro-2-methoxy-3-((4-(trifluoromethyl)piperidin-1-yl)methyl)quinolin-6-yl)(hydroxy)(phenyl)methyl)piperidin-1-yl)ethanone] displayed an IC50 in assay [1] of 30 nM.
With `COc1nc2ccc(C(O)(c3ccc(C)nc3C)c3cnnn3C)cc2c(Cl)c1C` (centres unmarked) [Example 12a, (4-Chloro-2-methoxy-3-methylquinolin-6-yl)(2,6-dimethylpyridin-3-yl)(1-methyl-1H-1,2,3-triazol-5-yl)methanol], in assay [2] (setting [4]), the Kd came to 290 nM. In assay [3] (setting [5]), the 50% inhibitory concentration (IC50) was 1100 nM.
As for `COc1nc2ccc(C(O)(c3ccc(C)nc3C)c3cnnn3C)cc2c(Cl)c1CC1CC1` (single isomer, unassigned) [Example 14c, (4-Chloro-3-(cyclopropylmethyl)-2-methoxyquinolin-6-yl)(2,6-dimethylpyridin-3-yl)(1-methyl-1H-1,2,3-triazol-5-yl)methanol], in assay [2] (ThermoFluor Assay, Kd), the Kd came out at 1.3 nM. Moreover, the IC50 in assay [3] came to 30 nM.
For the compound `COc1nc2ccc(C(O)(c3cnc(C)n3C)c3cnc(C)n3C)cc2c(Cl)c1OCC1CC1(F)F` (single isomer, unassigned) [Example 56b, {4-Chloro-3-[(2,2-difluorocyclopropyl)methoxy]-2-methoxyquinolin-6-yl}[bis(1,2-dimethyl-1H-imidazol-5-yl)]methanol], in assay [1], the IC50 was found to be 12 nM.
On to `COc1nc2ccc(C(O)(c3ccc(C(F)(F)F)nc3)c3cncn3C)cc2c(Cl)c1CN1CCC(C(F)(F)F)CC1` (single isomer, unassigned) [Example 112c, (4-Chloro-2-methoxy-3-((4-(trifluoromethyl)piperidin-1-yl)methyl)quinolin-6-yl)(1-methyl-1H-imidazol-5-yl)(6-(trifluoromethyl)pyridin-3-yl)methanol], for which the half-maximal inhibitory concentration (IC50) in assay [1] (CD4+ T) turned out to be 17 nM; in assay [3], 61 nM.
